Results published in patent publication US20260384421A1, “NOVEL COMPOUNDS THAT CAN BE USED AS THERAPEUTIC AGENTS” (published 2026).
Where two headings read alike, the source gives them in different places.

What was measured:
[1] = test system: mitochondrial transmembrane potential Δψm in A-549 cells; test: mitochondrial activity assay (TMRE staining, mitochondrial transmembrane potential) on A-549 cells; details: A-549 cells, compounds at 10 μM, 2 h 40 min, TMRE staining, relative to DMSO = 1.0
HPEKp cells = test: proliferation assay with human epidermal keratinocyte progenitors (HPEKp), selectivity versus MDA-MB-231
SW-1353 cells = test: alamarBlue proliferation assay with SW-1353 cells (glucose-free L-15 medium); details: read-out: Activity on SW-1353: IC50, Leibovitz's L-15 medium, 10% FBS, 0% CO2
[2] = read-out: Activity (HPEK): antiproliferative activity on HPEK cells, IC50 category, HPEK cells cultivated in CnT-Prime medium
[3] = read-out: Activity (HPEK), HPEK cells (HPEKp), antiproliferative activity, class by IC50

| Structure (SMILES) | Activity: relative mitochondrial transmembrane potential Δψm [1] | IC50 (HPEKp cells; [2]) [µM] | IC50 (SW-1353 cells) [µM] | IC50 (HPEKp cells; [3]) [µM] |
| --- | --- | --- | --- | --- |
| CS(=O)(=O)c1ccc(CN2CCN(C(=O)c3ccc(Oc4ccc(C5CCC6(CC5)OCCO6)cc4CO)cc3)CC2)cc1 | Δψm ≤0.7 | > 10 | ≤ 0.2 |  |
| COC1CCC(c2ccc(Oc3ccc(C(=O)N4CCN(Cc5ccc(S(F)(F)(F)(F)F)cc5)CC4)cc3)c(CO)c2)CC1 (centres unmarked) | Δψm ≤0.7 |  |  | < 5 |
| COc1ccc(CN2CCN(C(=O)c3ccc(Oc4ccc(C5CCC(OC)CC5)cc4)cc3)CC2)cc1 (centres unmarked) | Δψm ≤0.7 |  |  | < 10 |
| COc1ccc(CN2CCN(C(=O)c3ccc(Oc4ccc(C5CCC(OC)CC5)cc4CO)cc3)CC2)cc1 (centres unmarked) |  |  |  | > 10 |
| O=Cc1cc(C2CCC3(CC2)SCCCS3)ccc1Oc1ccc(C(=O)N2CCN(Cc3ccc(Cl)cc3)CC2)nc1 | Δψm ≤0.7 |  |  |  |
| COC1CCC(c2ccc(Oc3ccc(C(=O)N4CCN(Cc5ccc(C(F)(F)F)cc5)CC4)nc3)c(CO)c2)CC1 (centres unmarked) |  |  |  | < 5 |
| CN(C)C(=O)c1ccc(CN2CCN(C(=O)c3ccc(Oc4ccc(C5CCC6(CC5)OCCO6)cc4CO)cc3)CC2)cc1 | Δψm ≤0.7 |  | ≤ 0.2 | < 10 |
| COCC1(COC)CCC(c2ccc(Oc3ccc(C(=O)N4CCN(Cc5ccc(OC)cc5)CC4)cc3)c(CO)c2)CC1 | Δψm ≤0.7 |  |  | < 5 |
| COC1CCC(c2ccc(Oc3ccc(C(=O)N4CCN(Cc5ccc(C(F)(F)F)nc5)CC4)cc3)c(CO)c2)CC1 (centres unmarked) | Δψm ≤0.7 |  |  | < 5 |
| COC1CCC(c2ccc(Oc3ccc(C(=O)N4CCN(Cc5ccc(OCC(F)(F)F)cc5)CC4)cc3)c(CO)c2)CC1 (centres unmarked) | Δψm ≤0.7 |  |  | < 5 |
| O=C(c1ccc(Oc2ccc(C3CCC4(CC3)OCCO4)cc2CO)cc1)N1CCN(Cc2ccc(C(F)(F)F)nc2)CC1 | Δψm ≤0.7 | < 5 | ≤ 0.2 |  |
| COc1ccc(CN2CCN(C(=O)c3ccc(Oc4ccc(C5CCC6(CC5)OCCO6)cc4CO)cc3)CC2)cn1 | Δψm ≤0.7 | < 10 | ≤ 0.2 |  |
| O=C(c1ccc(Oc2ccc(C3CCC4(CCCC4)CC3)cc2CO)cc1)N1CCN(Cc2ccccc2)CC1 | Δψm ≤0.7 |  | ≤ 0.2 |  |
| COC1CCC(c2ccc(Oc3ccc(C(=O)N4CCN(Cc5cnc6ccccc6c5)CC4)nc3)c(CO)c2)CC1 (centres unmarked) |  |  |  | < 10 |
| COC1CCC(c2ccc(Oc3ccc(C(=O)N4CCN(Cc5ccc6ccccc6c5)CC4)nc3)c(CO)c2)CC1 (centres unmarked) | Δψm ≤0.7 |  |  | < 5 |
| COC1CCC(c2ccc(Oc3ccc(C(=O)N4CCN(Cc5ccc(Cl)cn5)CC4)cc3)c(CO)c2)CC1 (centres unmarked) |  |  |  | < 10 |
| O=C(c1ccc(Oc2ccc(C3CCC4(CC3)OCCO4)cc2CO)cc1)N1CCN(Cc2ccsc2)CC1 | Δψm ≤0.7 | < 10 | ≤ 0.2 |  |
| O=C(c1ccc(Oc2ccc(C3CCC4(CC3)OCCO4)cc2CO)cc1)N1CCN(Cc2ccc(Cl)cc2)CC1 | Δψm ≤0.7 | < 10 | ≤ 0.2 |  |
| CN(C)S(=O)(=O)c1ccc(CN2CCN(C(=O)c3ccc(Oc4ccc(C5CCC6(CC5)OCCO6)cc4CO)cc3)CC2)cc1 | Δψm ≤0.7 | < 10 | ≤ 0.2 |  |
| COC1CCC(c2ccc(Oc3ccc(C(=O)N4CCN(Cc5ccc(C(F)(F)F)cn5)CC4)cc3)c(CO)c2)CC1 (centres unmarked) | Δψm ≤0.7 |  |  | < 10 |
| O=C(c1ccc(Oc2ccc(C3CCC4(CC3)OCCO4)cc2CO)cc1)N1CCN(Cc2ccc3ccccc3c2)CC1 |  | < 10 |  |  |
| O=C(c1ccc(Oc2ccc(C3CCC4(CC3)OCCO4)cc2CO)cc1)N1CCN(Cc2ccc(O)cc2)CC1 | Δψm ≤0.7 | < 5 | ≤ 0.2 |  |
| O=C(c1ccc(Oc2ccc(C3CCC4(CC3)OCCO4)cc2CO)cc1)N1CCCN(Cc2ccc(Cl)cc2)CC1 | Δψm ≤0.7 | < 10 | ≤ 0.2 |  |
| O=C(c1ccc(Oc2ccc(C3CCC4(CC3)OCCO4)cc2CO)cc1)N1CCN(Cc2ccccc2Cl)CC1 | Δψm ≤0.7 | < 5 | ≤ 0.2 |  |

| Structure (SMILES) | Activity: relative mitochondrial transmembrane potential Δψm [1] | IC50 (HPEKp cells; [2]) [µM] | IC50 (SW-1353 cells) [µM] | IC50 (HPEKp cells; [3]) [µM] |
| --- | --- | --- | --- | --- |
| COc1ccc(CN2CCN(C(=O)c3ccc(Oc4ccc(C5CCCCC5)cc4CO)cn3)CC2)cc1 | Δψm ≤0.7 |  |  | < 5 |
| COC1CCC(c2ccc(Oc3ccc(C(=O)N4CCN(Cc5ccccc5)CC4)nc3)c(CO)c2)CC1 (centres unmarked) | Δψm ≤0.7 |  |  | < 10 |
| Cn1c(CN2CCN(C(=O)c3ccc(Oc4ccc(C5CCC6(CC5)OCCO6)cc4CO)cc3)CC2)cc2ccccc21 | Δψm ≤0.7 | < 10 | ≤ 0.2 |  |
| O=C(c1ccc(Oc2ccc(C3CCC4(CC3)OCCO4)cc2CO)cc1)N1CCN(Cc2ccoc2)CC1 | Δψm ≤0.7 | > 10 | ≤ 0.2 |  |
| COc1ccc(CN2CCN(C(=O)c3ccc(Oc4ccc(C5CCC(OC)CC5)cc4CO)cn3)CC2)cc1 (centres unmarked) |  |  |  | < 10 |
| O=C(c1ccc(Oc2ccc(C3CCC4(CC3)OCCO4)cc2CO)cc1)N1CCN(Cc2ccc(Cl)cn2)CC1 | Δψm ≤0.7 | < 10 | ≤ 0.2 |  |
| COCC1(COC)CCC(c2ccc(Oc3ccc(C(=O)N4CCN(Cc5ccc(Cl)cc5)CC4)cc3)c(CO)c2)CC1 | Δψm ≤0.7 |  |  | < 5 |
| O=C(c1ccc(Oc2ccc(C3CCC4(CC3)OCCO4)cc2CO)cc1)N1CCN(Cc2ccc(C(F)(F)F)cn2)CC1 | Δψm ≤0.7 | < 10 | ≤ 0.2 |  |
| O=C(c1ccc(Oc2ccc(C3CCC4(CC3)OCCO4)cc2CO)cc1)N1CCCN(Cc2ccc(C(F)(F)F)cc2)CC1 | Δψm ≤0.7 | < 5 | ≤ 0.2 |  |
| O=C(c1ccc(Oc2ccc(C3CCC4(CC3)OCCO4)cc2CO)cc1)N1CCN(Cc2ccc3oc(=O)ccc3c2)CC1 | Δψm ≤0.7 | < 10 | ≤ 0.2 |  |
| O=C(c1ccc(Oc2ccc(C3CCC4(CC3)OCCO4)cc2CO)cc1)N1CCN(Cc2cccs2)CC1 | Δψm ≤0.7 | < 10 | ≤ 0.2 |  |
| O=C(c1ccc(Oc2ccc(C3CCCCC3)cc2CO)cc1)N1CCN(Cc2ccc(Cl)cc2)CC1 |  |  |  | < 5 |
| O=C(c1ccc(Oc2ccc(C3CCC4(CC3)SCCS4)cc2CO)cn1)N1CCN(Cc2ccc(Cl)cc2)CC1 | Δψm ≤0.7 |  |  | < 10 |
| O=C(c1ccc(Oc2ccc(C3CCC4(CCCO4)CC3)cc2CO)cc1)N1CCN(Cc2ccccc2)CC1 (centres unmarked) | Δψm ≤0.7 |  | ≤ 0.2 |  |
| COc1ccc(CN2CCN(C(=O)c3ccc(Oc4ccc(C5CCC6(CC5)SCCCS6)cc4CO)cn3)CC2)cc1 | Δψm ≤0.7 |  |  | < 5 |
| COc1ccc(CN2CCN(C(=O)c3ccc(Oc4ccc(C5CCCCC5)cc4CO)cc3)CC2)cc1 |  |  |  | < 5 |
| COC1CCC(c2ccc(Oc3ccc(C(=O)N4CCN(Cc5ccc(OC(F)(F)F)cc5)CC4)cc3)c(CO)c2)CC1 (centres unmarked) | Δψm ≤0.7 |  |  | < 10 |
| O=C(c1ccc(Oc2ccc(C3CCC4(CC3)OCCO4)cc2CO)cc1)N1CCN(Cc2ccc([N+](=O)[O-])cc2)CC1 | Δψm ≤0.7 |  | ≤ 0.2 |  |
| COC1CCC(c2ccc(Oc3ccc(C(=O)N4CCN(Cc5ccc(C(F)(F)F)cc5)CC4)cc3)c(CO)c2)CC1 (centres unmarked) | Δψm ≤0.7 |  |  | < 5 |
| COC1CCC(c2ccc(Oc3ccc(C(=O)N4CCN(Cc5ccc(Cl)cc5)CC4)cc3)c(CO)c2)CC1 (centres unmarked) |  |  |  | < 10 |
| O=C(c1ccc(Oc2ccc(C3CCC4(CC3)SCCCS4)cc2CO)cn1)N1CCN(Cc2ccc(Cl)cc2)CC1 |  |  |  | < 5 |
| COc1cc(C2CCC(OC)CC2)ccc1Oc1ccc(C(=O)N2CCN(Cc3ccc(Cl)cc3)CC2)cc1 (centres unmarked) | Δψm ≤0.7 |  |  |  |
| COc1ccc(CN2CCN(C(=O)c3ccc(Oc4ccc(C5CCC(OC)CC5)cc4O)cn3)CC2)cc1 (centres unmarked) | Δψm ≤0.7 |  |  |  |
